Data as given in US12440495B2, “Combination therapy for treatment of myeloproliferative neoplasms” (Incyte Corporation, priority 2020, dated 2025).

System: MPLW515L expressing bone marrow
Assay: MPLW515L mouse model of MPN
Details: ruxolitinib 60 mg/kg BID, Compound 1 10 mg/kg QD, combination

## N#CC[C@H](C1CCCC1)n1cc(-c2ncnc3[nH]ccc23)cn1 [ruxolitinib, (3R)-3-cyclopentyl-3-[4-(7H-pyrrolo[2,3-d]pyrimidin-4-yl)-1H-pyrazol-1-yl]propanenitrile, reference compound]
  Fa (fraction affected, change vs vehicle), MPL SPL: 0.5858
  MPL SPL (sizes of the spleens): 0.3367 grams
